## Antibody variant affinities, Ab-14 light chain, assay B

Values reported by Li et al. 2023, doi:10.1038/s41467-023-39022-2 (FLAb copy).

The target is the same throughout: PDVDLGDISGINAS, from the HR2 region of SARS-CoV-2 spike.

The variants keep the heavy chain, the linker and the frameworks of Ab-14 (scFv order VH, three GGGGS repeats, VL).
VH: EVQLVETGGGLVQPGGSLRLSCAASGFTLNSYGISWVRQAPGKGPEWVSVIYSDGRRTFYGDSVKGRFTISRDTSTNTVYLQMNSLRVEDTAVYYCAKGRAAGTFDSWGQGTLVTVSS
VL: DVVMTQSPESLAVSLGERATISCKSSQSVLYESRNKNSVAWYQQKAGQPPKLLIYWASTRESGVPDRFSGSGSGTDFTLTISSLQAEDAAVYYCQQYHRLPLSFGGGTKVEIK

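Designed CDR sequences, proposed from the first random library and measured here. Several design methods are mixed in this list. In AlphaSeq, yeast of one mating type display the scFv and yeast of the other type display the target. Binding brings cells together so that they mate, and sequencing counts the barcode pairs among the diploids. The ratio of observed to expected reads was calibrated, replicate by replicate, on BCL2-family standards whose Kd was known from biolayer interferometry. Mating was done six times.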

Each variant is given by its three light chain CDRs, as the data file delimits them; those of the parent are KSSQSVLYESRNKNSVA, WASTRES, QQYHRLPLS. The Kd shown is the geometric mean over detected replicates; a lower Kd is a better binder. "nd" means that the variant was in the library but no mating with the target was seen in any replicate; the authors take this as a sign of poor binding, and no number exists. Values of this round are not directly comparable with the first-round values of the same sequences. Of ten entries with the parent sequence, four were seen in most replicates (averages 2.2 nM to 240 nM), three in one and three in none, so single entries are noisy. The authors averaged sequences with at least three values out of six and counted those with two or fewer as poor binders. Empty control strains, which show no peptide, gave a signal in 4% of pairings with all light chain designs; the median was 430 nM and 95% of these signals were weaker than 38 nM. No background was subtracted.

The variant KLSASVEYEDRNKNSVA / HASTREQ / QQYHRLPLM showed 850 pM (6 of 6 replicates).
The variant MLSDLVRMGSRNTNSVA / DNSTRGS / QQYDRLPLS showed 82 nM (6 of 6 replicates).
The variant KSSISVQYESRNKNSVA / SASTREI / QQYHRLPLS showed 1.8 nM (6 of 6 replicates).
The variant KVSEFMRGLMMRKDSIA / DNVTRSN / QQYDRLPLS showed 15 nM (6 of 6 replicates).
The variant RLWQQMYGFNIHANAIA / EGKERYW / QQYFRLPLS showed 6.5 nM (6 of 6 replicates).
The variant KLSQSVVYESRNKNSVA / TASTRED / QQYHMLPLS showed 6.7 nM (6 of 6 replicates).
The variant TIGQMFNGESRNRNSVA / QASTREH / QSYDRLPLS showed 3.3 nM (6 of 6 replicates).
The variant KDSQSVLYESRNKNSVA / WMSTRAS / QQYHRLPLS showed 150 nM (5 of 6 replicates).
The variant QVTIISDPYGRNRNNIA / QTSERAH / QQYQMLPLA showed 1.8 nM (6 of 6 replicates).
The variant KIGQMVLTGSYVKNSVA / QSSTREN / QQYHRLPLS showed 2.5 nM (6 of 6 replicates).
The variant KSSQSWLYESRNKNSVA / EASLRES / QQYHRLPLS showed 760 pM (6 of 6 replicates).
The variant KVSQSVLGLQRAQNSVA / EASKRES / QQYHRLPLS showed 4.4 nM (6 of 6 replicates).
The variant QLLMATMQGWYNRNSVA / HAETRED / QSYHRLPLS showed 28 nM (6 of 6 replicates).
The variant MISQLYNMGQFAINSVA / QASERNV / QQYDRLPLI showed 42 nM (6 of 6 replicates).
The variant IVSQLMLWGMHHKNSIA / EAQTKLN / QQYERLPLF showed nd (0 of 6 replicates).
The variant KSSQSVLYESLNKNSIA / WASTRES / PQYHRLPLS showed nd (0 of 6 replicates).
The variant KVWFSVLGQERNKMSVA / QASTRES / QQYHRLPLS showed 5.1 nM (6 of 6 replicates).

Second part, the sequence after the result:

Read-out 4.1 nM (6 of 6 replicates), from KIYQSGPYESRNKNSVA / SASTRSS / QQYHRLPLS.
Read-out 1.4 nM (6 of 6 replicates), from KLPQSVLYESRNKNSVA / EASTREM / QQYHRLPLS.
Read-out 570 pM (6 of 6 replicates), from KSSQSVLYESRDKNSVA / NASTRES / QQPHRLPLS.
Read-out 3.7 nM (6 of 6 replicates), from KSSISVLYESGNKNSVA / EASQRES / QQYHRLPLS.
Read-out 1.2 nM (6 of 6 replicates), from KWSCSQLYDDANKNSVA / NASTRMM / QQYHRLPLS.
Read-out 5.1 nM (4 of 6 replicates), from IVSQLMLVGMHAKNSIA / EASSRLN / QQYDRLPLF.
Read-out 10 nM (6 of 6 replicates), from KIQMNEGTLMENINSIA / NSEVIVQ / QSYFRLPLS.
Read-out 740 pM (6 of 6 replicates), from KVSQEFLYESRNKNSVA / DASTRES / QQYHRLPLS.
Read-out 1.5 nM (6 of 6 replicates), from KFSQSVLYESRDSNSVA / NASTRES / QQYHRLPLS.
Read-out 7.1 nM (6 of 6 replicates), from TIDQYTSYENGENWAIA / DVSIKDY / QQYARLPLL.
Read-out 2.0 nM (6 of 6 replicates), from KIGMTLNTLMQKKNNVA / DLVEREN / QQYFRLPLS.
Read-out 2.9 nM (6 of 6 replicates), from KLSQSVEYESRNKNSVA / NASTRES / QQYHRLPLQ.
Read-out 1.2 nM (6 of 6 replicates), from KLPQSVLYESRNKNSVA / HASQRES / QQYHRLPLS.
Read-out 2.4 nM (6 of 6 replicates), from KLSWSVLGMSRAKNSVA / NASTRES / QQYHRLPLS.
Read-out 410 nM (5 of 6 replicates), from HMNKFMSEIGGARNSIA / GDDTLAQ / QHYHRLPLS.
Read-out nd (0 of 6 replicates), from KSSQSVLYESRNKNSVA / WRSTRES / QQLHRLPLS.
Read-out 2.7 nM (6 of 6 replicates), from KLSQSQLYESRNKNSVA / NASTRES / QAYHRLPLS.

The last 3 entries again:

The variant HMNKFMSEIGGARNSIA / GDDTLAQ / QHYHRLPLS showed 410 nM (5 of 6 replicates).
The variant KSSQSVLYESRNKNSVA / WRSTRES / QQLHRLPLS showed nd (0 of 6 replicates).
The variant KLSQSQLYESRNKNSVA / NASTRES / QAYHRLPLS showed 2.7 nM (6 of 6 replicates).